Test results reported in US4172896A, “Methane-sulfonamide derivatives, the preparation thereof and composition comprising the same” (Dainippon Pharmaceutical Co., Ltd., priority 1978, dated 1979).

Experiments:
in vivo = details: mouse, mice, oral
Excerpt: Male mice of STD-ddY strain weighing 20-22 g were used. The test compounds were orally administered to the test animals (each group: 10 mice) in the form of a homogeneous suspension in 0.5% tragacanth solution.

[1] = Effect on coordinated motor movements in mice (rotarod); details: mouse, in vivo, po
Description: Mice trained to continue coordinated motor movements for 100 seconds or more on a rotarod apparatus (2.5 cm in diameter at 11 RPM) were used [J. Amer. Pharm. […] Impairment of coordinated motor movements was defined as the inability of the animals to retain on the rotarod for a 100 second test period. After oral administration of the test compounds rotarod performance was tested at intervals of 1 hour for 6 hours. Median neurotoxic dose (NTD50), i.e. the does which causes fall from rotarod in 50% of animals, was calculated by the method of Litchfield and Wilcoxon.

## O=C1NC(=O)C(c2ccccc2)(c2ccccc2)N1 [Diphenylhydantoin, 5,5-diphenyl-2,4-imidazolidinedione, reference compound]
In vivo; LD50/ED50 of anti-MES, read-out: Safety index
  selectivity ratio: 47.8
In vivo; mortality observed for 7 days
  LD50 at 168 h: 363 mg/kg
[1]
  selectivity ratio: 9.5
